These results are taken from patent publication US20120142766A1, “SUBSTITUTED 1,3-DIOXANES AND THEIR USES” (EVOLVA SA, priority 2007, published 2012).

In this assay the target is T1, Thromboxane synthase (Homo sapiens, UniProt P24557).
T1 construct: Human Platelet Thromboxane Synthase Assay; from tissue; host or cells: human platelets
T1 sequence (P24557 1-533): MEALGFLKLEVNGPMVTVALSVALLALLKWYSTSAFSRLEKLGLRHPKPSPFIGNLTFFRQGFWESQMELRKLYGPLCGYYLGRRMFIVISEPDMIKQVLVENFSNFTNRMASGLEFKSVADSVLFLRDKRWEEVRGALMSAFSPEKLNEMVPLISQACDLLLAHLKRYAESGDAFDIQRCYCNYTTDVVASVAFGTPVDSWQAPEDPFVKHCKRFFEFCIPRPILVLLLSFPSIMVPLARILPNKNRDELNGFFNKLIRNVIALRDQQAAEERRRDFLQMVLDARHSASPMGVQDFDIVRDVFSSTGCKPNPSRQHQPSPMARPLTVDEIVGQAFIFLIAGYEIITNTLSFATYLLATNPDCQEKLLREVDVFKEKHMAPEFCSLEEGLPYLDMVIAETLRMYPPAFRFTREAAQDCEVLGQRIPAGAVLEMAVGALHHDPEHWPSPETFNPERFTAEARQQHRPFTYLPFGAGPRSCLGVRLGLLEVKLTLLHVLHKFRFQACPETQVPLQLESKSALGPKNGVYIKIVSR
As to the kind of experiment: Human platelet thromboxane synthase assay. The class given is biochemical. The protocol:
The compounds were tested for thromboxane synthase inhibition essentially as described by Borsch-Haubold A G, Pasquet S, Watson S P. (1998) Direct inhibition of cyclooxygenase-1 and -2 by the kinase inhibitors SB 203580 and PD 98059. […] 1. Imidazole derivatives. J Med. Chem. (10):1139-48 according to the following:
Pre-incubation time, temp: 15 minutes at 25° C. Incubation time, temp: 3 minutes at 25° C.
Incubation Buffer: 10 mM Tris-HCl, pH 7.4
Quantification Method: EIA quantification of TxB2

The term IC50 denotes the concentration that inhibits the measured activity by half. In the case of `O=C(O)CC/C=C\C[C@H]1CO[C@@H](c2ccccc2Cl)O[C@H]1c1ccccc1O` [Compound B, (Z)-6-((2R,4R,5S)-2-(2-chlorophenyl)-4-(2-hydroxyphenyl)-1,3-dioxan-5-yl)hex-4-enoic acid], 12.1 µM corresponded to half-maximal inhibition (IC50).

Regarding `O=C(O)CC/C=C\C[C@@H]1CO[C@H](c2ccccc2Cl)O[C@@H]1c1ccccc1O` [Compound C, (Z)-6-((2S,4S,5R)-2-(2-chlorophenyl)-4-(2-hydroxyphenyl)-1,3-dioxan-5-yl)hex-4-enoic acid], the IC50 is 7.02 µM.
